Laboratory results reported in patent US8546320B2, “Hsp9O-targeted anti-cancer chimeric peptide” (Kyoto University, priority 2008, dated 2013).

Target: T1, interaction between Hsp90 and the Hop's TPR2A domain (Homo sapiens, UniProt P07900)
T1 construct: histidine tag; made in house; host or cells: Hsp90: E. coli BL21 (pDEST17-Hsp90)
Assay: BIACORE competition: Hsp90 pre-mixed with peptide, added to immobilized TPR2A
Type: binding
Description: It was examined whether the TPR peptide designed could compete specifically with the interaction between Hsp90, which is essential for the accurate folding of some carcinogenic protein including survivin in cancer cells, and the Hop's TPR2A domain.

- Binding of Hsp90 (%) (peptide 1.411 μM): 97.75%
- Binding of Hsp90 (%) (peptide 14.11 μM): 95.20%
- Binding of Hsp90 (%) (peptide 141.1 μM): 92.84%
- Binding of Hsp90 (%) (peptide 282.2 μM): 83.14%
- Binding of Hsp90 (%) (peptide 705.5 μM): 71.08%
Substance: TPR mutant 1: TPR mutant 1 peptide without Antp, SEQ ID No. 70; sequence not printed in the text (KAYAAAGNSYTFK; TPR mutant 1)
